In this assay the test system is SOD1-G93A mice. The experiment in a line: Onset time and survival time of SOD1-G93A mice (Example 3). It is filed as in vivo. As for the experimental part: The transgenic mice with amyotrophic lateral sclerosis (B 6 SJL-Tg(SOD1*G93A)1Gur/JNj u, hereinafter referred to as SOD1-G93 A mice) and the wild-type control mice were purchased from Nanjing Biomedical Research Institute of Nanjing University.
Experimental animals were divided into 6 groups, the wild control (Wt) group, the model (Tg) group, the positive drug Riluzole (Tg-Riluzole) group, the positive drugedaravonel5mg/kg (Tg-E15) group, the composition 5 mg/kg (Tg-05 group, 15 mg/kg (Tg-C15) group, respectively. The mass ratio of edaravone to natural borneol in the composition group was 4:1.
Dosing to animals was initiated from the age of 10 weeks, keeping on the whole survival period. Each dosage of the composition and the positive drug edaravone group was dosed by intraperitoneal injection once a day. The drug in the positive drug Riluzole group was dissolved in drinking water, 100 μg/ml. Animals in the wild control group and the model group were given the corresponding volumes of solvents by intraperitoneal injection.
From the age of 10 weeks, the body weight, the motor function (motor ability score, rotarod test) of animals had been monitored once a week. Two consecutive rod droppings in the animal rotarod test had been considered as the sign of the onset of animal diseases. […]

Marks after values point to notes of the source that are not given here.

The source of these data is patent US10206905B2, “Use of composition for preparing a medicament for treatment of amyotrophic lateral sclerosis” (priority 2015, dated 2019).

As to `Nc1nc2ccc(OC(F)(F)F)cc2s1` [Riluzole], where the note is “100 μg/ml in drinking water from age 10 weeks, mean ± standard error”, the “Survival Time” value was 155.8 ± 8.3*** d. Further, the “Survival Time Extension” value (100 μg/ml in drinking water, versus SOD1-G93A control) stood at 15.6 days.
